Test results as given in PubChem BioAssay AID1259312 (Keith Lab, Institute of Cancer Science, University of …, 2017).
The entries are a selection whose mix differs from that of the whole data set. Some tests of the compounds listed are not included; inactive here does not mean inactive elsewhere. The source made the active and inactive calls.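 The calls were made as follows: active = cell survival measured by absorbance rises more than 2.5-fold over infected cells without compound; inactive = the rest.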

Test: survival after telomere uncapping, modulators, primary screen, cell-based (AID 1259312);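 also: virus expresses mutant telomerase RNA that uncaps telomeres and kills cells; compound added 2 days after infection so exposure lasts 3 days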
Settings: HCT116 + Ad-hTR-mut, MTT, 5 d, at 10 µM, active compounds read high

Structure (SMILES)	fold change
Cc1cc(C)c(C=C(C#N)C#N)c(C)c1	inactive: -1.08
